The target in this experiment is Broad substrate specificity ATP-binding cassette transporter ABCG2 (Homo sapiens, UniProt Q9UNQ0). The experiment can be described thus: Inhibition of BCRP expressed in MCF-7 MX cells using Hoechst 33342 staining. The class given is cell-based, MCF7.

Protein sequences, listed by entry. Tags and fused reporters are not part of them. Lines headed by an entry give the natural chain unless they say otherwise; changes in a name come on top.
UniProt Q9UNQ0: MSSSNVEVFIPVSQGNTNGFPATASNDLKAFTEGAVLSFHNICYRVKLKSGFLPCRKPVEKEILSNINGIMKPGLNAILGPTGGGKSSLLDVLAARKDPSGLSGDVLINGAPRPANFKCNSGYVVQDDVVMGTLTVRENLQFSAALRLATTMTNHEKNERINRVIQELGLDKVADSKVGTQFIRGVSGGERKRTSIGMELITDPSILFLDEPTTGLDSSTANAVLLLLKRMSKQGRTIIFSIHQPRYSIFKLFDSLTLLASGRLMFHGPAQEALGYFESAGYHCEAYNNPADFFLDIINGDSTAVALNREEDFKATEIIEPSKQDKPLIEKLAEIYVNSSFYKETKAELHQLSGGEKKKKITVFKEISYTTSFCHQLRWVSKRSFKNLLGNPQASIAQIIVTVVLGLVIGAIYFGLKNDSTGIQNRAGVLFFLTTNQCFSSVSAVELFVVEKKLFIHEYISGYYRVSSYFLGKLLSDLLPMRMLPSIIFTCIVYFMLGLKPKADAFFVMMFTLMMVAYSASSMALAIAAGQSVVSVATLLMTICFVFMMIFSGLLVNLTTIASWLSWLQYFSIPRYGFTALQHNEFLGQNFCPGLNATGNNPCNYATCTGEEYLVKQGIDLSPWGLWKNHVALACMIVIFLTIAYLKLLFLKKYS

As to `O=c1cc(-c2ccccc2)oc2cc(O)cc(O)c12` [CHRYSIN], the IC50 – broadly, the midpoint of a concentration-inhibition curve – came to 2600 nM.

These data come from ChEMBL document CHEMBL1681785, “Structure-activity relationships of flavonoids as inhibitors of breast cancer resistance protein (BCRP)” (Bioorg Med Chem, 2011).
